Screens: PubChem BioAssay, Broad Institute
Hits are enriched below; roughly 2.1% of the tested compounds scored in any of these assays.
Yeast UUG start – modulators of start codon recognition fidelity in yeast. S. cerevisiae UUG-firefly luciferase reporter, luminescence/redox ratio. activity score, % at 18.7 µM. 350,000 tested, 0.13% active;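 active = replicate mean at a twofold rise or more, about +100% in these data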;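 note: firefly luciferase made from a UUG start codon reports start codon fidelity; reporter light over untreated wells divided by growth signal over untreated wells; some hits fall short of that in this replicate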
PGC1a acetyl inh – modulators of PGC1a acetylation; inhibition, % at 15.6 µM; 350,000 compounds, 0.17% hits; U2OS PGC1a acetylation, AlphaScreen anti-acetyl-lysine; with virally co-expressed GCN5 acetyltransferase;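 active means every replicate shows inhibition of at least 40%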;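 further: 0% = neutral control wells and 100% = positive control wells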
miR-122 sensor – miR-122 inhibition in Huh7 cells | 340,000 compounds, 0.3% hits | Huh7 miR-122 Renilla luciferase sensor, 48 h; neutral wells = 0, positive control = 100 | activation (reporter increase), % at 12.5 µM;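 active means mean replicate activation score at least 90 and every replicate individually at or above 90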;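 further: higher luciferase means less miR-122 activity so hits act as miR-122 inhibitors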
Wnt bcat act – activates Wnt/beta-catenin signaling in a reporter cell assay; activation, % at 9.35 µM; AID 743398; 300,000 compounds, 1.2% hits; activator, plate reader; in the data active means activation above about 30%, passing the limit was not always enough;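 further: 0% = neutral control wells and 100% = positive control wells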
MITF TRPM1 inh – reduces MITF-dependent TRPM1 promoter luciferase signal. SK-MEL-5 TRPM1 promoter luciferase, 24 h. inhibition, % at 12.5 µM. 330,000 compounds, 0.83% hits. AID 488899;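 active means mean inhibition across replicates of 60% or more, whatever share of single replicates reaches that level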
MITF act – MITF TRPM1 promoter activation in melanoma cells; SK-MEL-5 TRPM1-promoter luciferase, 24 h; % of positive control, neutral wells = 0; activation, % at 12.5 µM; 300,000 compounds, 0.75% hits;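 active means mean activation of at least 80% with every replicate also reaching 80%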;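 further: 0% = neutral control wells and 100% = parthenolide positive control wells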
The depositor's hits bear a star; nt = no result; ! = a repeat was not active; [ ] = another dose, or the depositor's remark.

Abbreviations: A = Yeast UUG start; B = PGC1a acetyl inh; C = miR-122 sensor; D = Wnt bcat act; E = MITF TRPM1 inh; F = MITF act
Structure: CC1(C)Cc2c(sc(NC(=O)c3ccc4ncsc4c3)c2C(N)=O)C(C)(C)N1
  A: nt; B: nt; C: nt; D: -2; E: 78*; F: -77

Structure: CCc1nnc(NC(=O)c2ccc3ncsc3c2)s1
  A: -26; B: -6; C: -1; D: 34*; E: -40; F: 45

Structure: CC1(C)Cc2c(sc(NC(=O)c3ccc(C(=O)c4ccccc4)cc3)c2C(N)=O)C(C)(C)N1
  A: -9; B: -16; C: -3; D: 23; E: 39; F: -41

Structure: C[C@H](CO)N1C[C@H](C)[C@@H](CN(C)Cc2ccncc2)Oc2ccc(NS(=O)(=O)c3ccccc3)cc2CC1=O
  A: -9; B: -4; C: -4[16.7 µM]; D: nt; E: nt; F: nt

Structure: COc1ccc2nc(N3CCCCC3)c(C#N)cc2c1
  A: -8; B: nt; C: -22; D: 44*; E: -62; F: nt

Structure: O=C(c1cc2ccccc2[nH]1)N1CCOCC1
  A: nt; B: nt; C: nt; D: 36*; E: 24; F: -23

Structure: C[C@H](CO)N1C[C@H](C)[C@@H](CN(C)C(=O)Nc2ccc(F)cc2)Oc2c(cccc2N(C)C)C1=O
  A: 8; B: -2; C: 4[16.7 µM]; D: nt; E: nt; F: nt

Structure: Nc1c(C(=O)Nc2ccc3c(c2)OCCO3)nnn1CCc1ccccc1
  A: 0; B: nt; C: nt; D: 12; E: -17; F: 12

Structure: O=C(CN1CCN(CC(=O)Nc2ccccc2Cl)CC1)Nc1ccc2c(c1)OCCO2
  A: -11; B: -47; C: 0; D: nt; E: -6; F: 5

Structure: Nc1c(C(=O)Nc2ccc3c(c2)OCCO3)nnn1Cc1cccc(Br)c1
  A: nt; B: nt; C: 55; D: 42*; E: -101; F: 102*

Copied from the list:
CCc1nnc(NC(=O)c2ccc3ncsc3c2)s1 in miR-122 sensor = -1
CC1(C)Cc2c(sc(NC(=O)c3ccc4ncsc4c3)c2C(N)=O)C(C)(C)N1 in MITF act = -77
O=C(c1cc2ccccc2[nH]1)N1CCOCC1 in MITF TRPM1 inh = 24

Next part:
Abbreviations: A = Yeast UUG start; B = PGC1a acetyl inh; C = miR-122 sensor; D = Wnt bcat act; E = MITF TRPM1 inh; F = MITF act
Structure: Nc1c(C(=O)Nc2ccc3c(c2)OCCO3)nnn1Cc1ccc(Br)cc1
  A: -12; B: -66; C: nt; D: 36*; E: -108; F: 111*

Structure: Nc1c(C(=O)Nc2ccccc2Cl)nnn1-c1ccc2c(c1)OCCO2
  A: -20; B: nt; C: nt; D: 18; E: -137; F: 132*

Structure: O=C(Nc1ccc(F)cc1)N1C[C@H]2[C@@H](c3ccccc31)[C@@H](CO)N2C(=O)c1ccccn1
  A: 39; B: -5; C: -13[16.7 µM]; D: nt; E: nt; F: nt

Structure: O=C(CCN1CCCCC1)NCC[C@@H]1CC[C@H](NS(=O)(=O)c2cccc(F)c2)[C@@H](CO)O1
  A: 14; B: -14; C: nt; D: nt; E: nt; F: nt

Structure: COc1ccc(-c2cn(Cc3ccc(C(N)=O)cc3)c(-c3ccncc3)n2)cc1
  A: -12; B: -11; C: 2; D: 47*; E: -103; F: 106*

Structure: COc1ccc(-c2cn(CCC(=O)O)c(-c3ccncc3)n2)cc1
  A: -9; B: 9; C: -5; D: 1; E: -3; F: 1

Structure: Cn1c(=O)cc(OCCCC(=O)NCc2ccccn2)c2ccccc21
  A: -16; B: -2; C: 9; D: 14; E: 2; F: nt

Structure: Cc1ccnc(NC(=O)CCCOc2cc(=O)n(C)c3ccccc23)c1
  A: -10; B: nt; C: 183*!; D: -1; E: 5; F: -6

Structure: CCC(=O)N(C)C[C@H]1Oc2ncc(/C=C/c3ccccc3)cc2C(=O)N([C@@H](C)CO)C[C@@H]1C
  A: 9; B: -1; C: -6[16.7 µM]; D: nt; E: nt; F: nt

Structure: O=[N+]([O-])c1ccc(-n2nnnc2-c2ccccc2)c([N+](=O)[O-])c1
  A: -17; B: nt; C: 11; D: -10; E: 98*; F: -97

(more compounds)
Abbreviations: A = Yeast UUG start; B = PGC1a acetyl inh; C = miR-122 sensor; D = Wnt bcat act; E = MITF TRPM1 inh; F = MITF act
Structure: O=C(/C=C/c1ccc(Br)cc1)c1ccco1
  A: nt; B: nt; C: nt; D: 2; E: -6; F: 5

Structure: O=C(/C=C/C=C/c1ccccc1)c1ccco1
  A: -3; B: nt; C: nt; D: 40*; E: -8; F: 16

Structure: CN(C)c1ccc(N/C=C/C(=O)c2ccco2)cc1
  A: -57; B: 2; C: 2; D: 43*; E: -18; F: 21

Structure: O=C(/C=C/Nc1ccccc1O)c1ccco1
  A: nt; B: -3; C: nt; D: 52*; E: -40; F: 44

Structure: O=C(/C=C/Nc1ccc(F)c(Cl)c1)c1ccco1
  A: -7; B: 5; C: 1; D: nt; E: -33; F: 34

Structure: O=C(/C=C/Nc1cccc(F)c1)c1ccco1
  A: -9; B: -7; C: 68; D: nt; E: -83; F: 93*

Structure: C[C@H](CO)N1C[C@H](C)[C@H](CN(C)Cc2ccc(C(=O)O)cc2)Oc2c(NC(=O)C3CC3)cccc2C1=O
  A: -29; B: 8; C: -6[16.7 µM]; D: nt; E: nt; F: nt

Structure: CC(=O)N(C)C[C@@H]1Oc2cc(C#CC(C)C)ccc2S(=O)(=O)N([C@@H](C)CO)C[C@H]1C
  A: 2; B: -2; C: 67[16.7 µM]; D: nt; E: nt; F: nt

Structure: CN(C)CCCNC(=O)C[C@H]1C=C[C@@H](NC(=O)Cc2cccnc2)[C@@H](CO)O1
  A: -11; B: -3; C: -11[16.7 µM]; D: nt; E: nt; F: nt

Structure: C[C@@H]1CN([C@H](C)CO)C(=O)c2cccc(NS(=O)(=O)c3ccccc3)c2O[C@@H]1CN(C)S(=O)(=O)c1ccc(F)cc1
  A: -8; B: -1; C: 1[16.7 µM]; D: nt; E: nt; F: nt

(list continues)
Abbreviations: A = Yeast UUG start; B = PGC1a acetyl inh; C = miR-122 sensor; D = Wnt bcat act; E = MITF TRPM1 inh; F = MITF act
Structure: CC(=O)c1ccc(-n2c(SCC(=O)c3c[nH]c4ccccc34)nc3ccccc3c2=O)cc1
  A: nt; B: nt; C: nt; D: 45*; E: 7; F: -9

Structure: Cn1ccnc1SCC(=O)c1c[nH]c2ccccc12
  A: -25; B: 4; C: 15; D: 55*; E: -9; F: 14

Structure: CC(=O)c1ccc2c(c1)Cc1cc(C(C)=O)ccc1-2
  A: nt; B: nt; C: nt; D: 46*; E: -91; F: 93*

Structure: CCC(=O)Nc1ccc2c(c1)Cc1cc(NC(=O)CC)ccc1-2
  A: -15; B: -1; C: -6; D: 2; E: -6; F: 2

Structure: COc1ccc(-c2noc(-c3ccccc3F)n2)cc1
  A: -35; B: -2; C: -8; D: 14; E: -33; F: 33

Structure: NC(=O)c1cccc(-c2noc(-c3ccccc3F)n2)c1
  A: -12; B: 14; C: -1; D: 6; E: -31; F: 32

Structure: Fc1ccccc1-c1nc(-c2ccccc2)no1
  A: -12; B: 3; C: 12; D: 46*; E: 1; F: -3

Structure: Fc1ccccc1-c1nc(-c2ccc(-c3nn[nH]n3)cc2)no1
  A: -14; B: 5; C: 2; D: 39*; E: -44; F: 47

Structure: c1ccc2c(-c3nc(-c4ccncc4)no3)cccc2c1
  A: -16; B: 4; C: 7; D: nt; E: -52; F: 51

Structure: Fc1ccccc1-c1nc(-c2ccncc2)no1
  A: -37; B: nt; C: -30; D: 55*; E: -90; F: nt

With a hit mark in miR-122 sensor, among the entries above:
Abbreviations: A = Yeast UUG start; B = PGC1a acetyl inh; C = miR-122 sensor; D = Wnt bcat act; E = MITF TRPM1 inh; F = MITF act
Structure: Cc1ccnc(NC(=O)CCCOc2cc(=O)n(C)c3ccccc23)c1
  A: -10; B: nt; C: 183*!; D: -1; E: 5; F: -6

Going on with the list.
Abbreviations: A = Yeast UUG start; B = PGC1a acetyl inh; C = miR-122 sensor; D = Wnt bcat act; E = MITF TRPM1 inh; F = MITF act
Structure: C[C@H]1CN([C@@H](C)CO)C(=O)c2cccc(N(C)C)c2O[C@H]1CN(C)C(=O)Nc1ccc2c(c1)OCO2
  A: -6; B: 8; C: -1[16.7 µM]; D: nt; E: nt; F: nt

Structure: CCCNC(=O)N1C[C@@H]2[C@H](c3ccccc31)[C@H](CO)N2C(=O)NC(C)C
  A: -11; B: -10; C: -10[16.7 µM]; D: nt; E: nt; F: nt

Structure: CCCC(=O)Nc1ccc2c(c1)C(=O)N(C)[C@H]1CC[C@@H](CC(=O)Nc3cn(C)nc3C)O[C@H]1CO2
  A: -3; B: 3; C: 10[16.7 µM]; D: nt; E: nt; F: nt

Structure: O=C(C[C@H]1CC[C@H](NC(=O)Nc2ccc3c(c2)OCO3)[C@H](CO)O1)NCc1ccc(Cl)cc1
  A: -3; B: 10; C: nt; D: nt; E: nt; F: nt

Structure: COc1cc(Br)cc(/C=C/c2ccc3cccc(O)c3n2)c1OC
  A: -24; B: nt; C: nt; D: 1; E: 23; F: -22

Structure: COc1cccc(/C=C/c2ccc3cccc(O)c3n2)c1OC
  A: -23; B: nt; C: 25; D: 54*; E: -15; F: 17

Structure: COc1ccc(Br)cc1/C=C/c1ccc2cccc(O)c2n1
  A: -22; B: -9; C: 13; D: 2; E: 13; F: -9

Structure: COc1ccc(/C=C/c2ccc3cccc(O)c3n2)c(OC)c1OC
  A: -13; B: 2; C: 16; D: 57*; E: -19; F: 17

Structure: C[C@H](O)C#Cc1cnc2c(c1)C(=O)N([C@@H](C)CO)C[C@H](C)[C@H](CN(C)CC1CCCCC1)O2
  A: 25; B: 15; C: -4[16.7 µM]; D: nt; E: nt; F: nt

Structure: Cc1ccc(C)c2c1CCC(=Cc1ccccc1[N+](=O)[O-])C2=O
  A: -20; B: nt; C: nt; D: -7; E: nt; F: nt

Structure: CN1C/C(=C/c2ccccc2[N+](=O)[O-])C(=O)/C(=C\c2ccccc2[N+](=O)[O-])C1
  A: nt; B: -28; C: 18; D: -25; E: 62*; F: nt

Structure: CCOCCCNC(=O)/C(C#N)=C/c1ccc(-c2ccc(S(=O)(=O)N3CCOCC3)cc2)o1
  A: 16; B: 3; C: 15; D: nt; E: -6; F: 9
